Assay results: publication PMC12245028, “Macrophage WEE1 Directly Binds to and Phosphorylates NF‐κB p65 Subunit to Induce Inflammatory Response and Drive Atherosclerosis” (Advanced Science, 2025)

Experiments:
[1] = biological target: T1, Recombinant human WEE1 protein (rhWEE1) (human, UniProt P30291); experiment: BLI; FortéBio Octet Red 96; biotinylated rhp65 loaded on super streptavidin (SSA) sensors; rhWEE1 at 12.5, 25, 50, 100 and 200 nM; 25 mM HEPES, 150 mM NaCl, 0.02% Tween-20; conditions: both partners purified
T1 construct: Recombinant human WEE1 protein; No catalogue number is printed; source: bought: Abiocenter (Beijing, China)

[2] = biological target: T1, Recombinant human WEE1 protein (rhWEE1); experiment: SPR; Biacore T200, CM7 chip; rhWEE1 immobilised by amine coupling (10 mM acetate pH 5.0); rhp65 flowed in PBS with 5% DMSO, 30 µL/min, 25 °C; 1:1 Langmuir model, global fit; conditions: both partners purified

Kd [1]: 13.7 nM
Kd [2]: 73.3 nM
B1: Recombinant human p65 (rhp65) (natural protein, UniProt Q04206 1-551, looked up)
chain: MDELFPLIFPAEPAQASGPYVEIIEQPKQRGMRFRYKCEGRSAGSIPGERSTDTTKTHPTIKINGYTGPGTVRISLVTKDPPHRPHPHELVGKDCRDGFYEAELCPDRCIHSFQNLGIQCVKKRDLEQAISQRIQTNNNPFQVPIEEQRGDYDLNAVRLCFQVTVRDPSGRPLRLPPVLSHPIFDNRAPNTAELKICRVNRNSGSCLGGDEIFLLCDKVQKEDIEVYFTGPGWEARGSFSQADVHRQVAIVFRTPPYADPSLQAPVRVSMQLRRPSDRELSEPMEFQYLPDTDDRHRIEEKRKRTYETFKSIMKKSPFSGPTDPRPPPRRIAVPSRSSASVPKPAPQPYPFTSSLSTINYDEFPTMVFPSGQISQASALAPAPPQVLPQAPAPAPAPAMVSALAQAPAPVPVLAPGPPQAVAPPAPKPTQAGEGTLSEALLQLQFDDEDLGALLGNSTDPAVFTDLASVDNSEFQQLLNQGIPVAPHTTEPMLMEYPEAITRLVTGAQRPPDPAPAPLGAPGLPNGLLSGDEDFSSIADMDFSALLSQISS
modifications: biotin (biotinylated with a Biotinylation Kit for the BLI assay; not for SPR)
notes: Recombinant human p65 (NF-κB p65, RELA); No catalogue number is printed; also called biotin labeled‐p65 protein; source: bought: Abiocenter (Beijing, China)
